Protein sequences, listed by entry. Tags and fused reporters are not part of them.
UniProt A0A1I7VQ84, entry or part of it: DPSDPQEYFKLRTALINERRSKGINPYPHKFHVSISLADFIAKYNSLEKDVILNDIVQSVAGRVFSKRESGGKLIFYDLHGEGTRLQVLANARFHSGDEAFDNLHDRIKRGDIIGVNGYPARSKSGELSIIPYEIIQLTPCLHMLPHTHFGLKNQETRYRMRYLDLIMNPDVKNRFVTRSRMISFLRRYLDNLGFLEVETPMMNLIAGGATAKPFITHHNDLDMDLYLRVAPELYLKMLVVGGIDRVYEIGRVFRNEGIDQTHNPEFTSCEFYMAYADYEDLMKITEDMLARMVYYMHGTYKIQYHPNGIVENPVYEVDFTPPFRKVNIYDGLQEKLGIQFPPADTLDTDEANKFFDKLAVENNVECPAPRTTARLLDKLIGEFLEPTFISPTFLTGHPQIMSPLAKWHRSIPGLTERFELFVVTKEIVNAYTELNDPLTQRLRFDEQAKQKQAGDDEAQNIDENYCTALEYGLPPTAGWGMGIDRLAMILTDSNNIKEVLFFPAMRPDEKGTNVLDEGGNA
UniProt A0A3Q0KK01, entry or part of it: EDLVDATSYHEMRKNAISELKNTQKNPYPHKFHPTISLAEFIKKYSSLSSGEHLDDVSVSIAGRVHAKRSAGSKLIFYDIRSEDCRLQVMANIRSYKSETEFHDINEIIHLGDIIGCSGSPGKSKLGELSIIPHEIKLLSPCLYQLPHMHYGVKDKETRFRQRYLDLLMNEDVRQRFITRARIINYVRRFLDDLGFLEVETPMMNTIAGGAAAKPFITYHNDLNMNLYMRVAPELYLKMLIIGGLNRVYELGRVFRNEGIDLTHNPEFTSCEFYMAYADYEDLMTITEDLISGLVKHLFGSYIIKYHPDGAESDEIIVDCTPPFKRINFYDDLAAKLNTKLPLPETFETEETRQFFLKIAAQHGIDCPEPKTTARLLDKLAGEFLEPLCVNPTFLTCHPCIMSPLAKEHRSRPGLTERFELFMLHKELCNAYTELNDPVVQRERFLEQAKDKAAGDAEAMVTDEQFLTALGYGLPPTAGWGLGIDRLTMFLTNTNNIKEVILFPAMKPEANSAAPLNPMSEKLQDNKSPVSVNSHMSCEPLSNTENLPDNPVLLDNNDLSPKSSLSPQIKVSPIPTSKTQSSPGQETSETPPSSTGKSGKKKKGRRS

According to paper PMC5091859, “Protein Translation Enzyme lysyl-tRNA Synthetase Presents a New Target for Drug Development against Causative Agents of Loiasis and Schistosomiasis” (PLoS Neglected Tropical Diseases, 2016):

What was measured:
LlKRS [1] = molecular target: T1, LlKRS (Loa loa, UniProt A0A1I7VQ84); test: Protein thermal shift assay, LlKRS; assay type: binding; conditions: ligand 20 μM, KRS 2 μM (10:1), 1 mM L-lysine
Description: (§1) Protein melt curve assays for both worm KRSs were performed as reported earlier. Both KRSs were diluted in buffer containing 20 mM Tris (pH 8.0), 200 mM NaCl, 5 mM MgCl2, 1 mM L-lysine and 2 X SYPRO orange dye (Life Technologies). […] Ligand bound and unbound samples of both KRSs were heated from 20 to 96°C at a rate of 1°C min^-1 and fluorescence signals were monitored by StepOnePlus quantitative real-time PCR system (Life Technologies). […] Each curve was an average of three measurements and data were analyzed using thermal shift software (Life technologies). Samples without the addition of ligands were used to determine thermal melting profile of apo proteins. […] Derivative Tm (melting temperature) was used for analysis.

SmKRS = SmKRS (Schistosoma mansoni, UniProt A0A3Q0KK01); test: Protein thermal shift assay, SmKRS; assay type: binding; conditions: ligand 20 μM, KRS 2 μM (10:1), 1 mM L-lysine
Description: as §1

LlKRS [2] = molecular target: T1, LlKRS; test: Isothermal titration calorimetry, LlKRS; assay type: binding; conditions: 30°C, PBS pH 7.4, 1 mM L-Lys, 2 mM MgCl2; read-out: Kd (ITC), LlKRS
Description: ITC experiments were conducted at 30°C in the MicroCal ITC-200 apparatus (GE Healthcare) and results were fitted into graph using Microcal origin software. Both parasite KRSs were prepared in PBS (phosphate-buffered saline) pH 7.4 with 1 mM L-Lys and 2 mM MgCl2, and cladosporin was solubilized in the same buffer. Cladosporin at concentrations of 240 μM and 360 μM was titrated into 21 μM and 22.5 μM protein concentrations of SmKRS and LlKRS respectively. For LlKRS, titrations consisted of 0.4 μl of first injection followed by 39 injections of 1 μl with 150 s intervals between injections. For SmKRS, same titrations were performed with 120 s intervals. Titration of cladosporin in buffer alone was performed to determine the change in enthalpy caused by ligand dilution and then subtracted as background from the actual ligand-binding experiments. Limited protein precipitation with LlKRS during our multiple ITC experiments (in various conditions for n-value optimization trials) was observed and possibly contributed to the lower n-value, which nonetheless is verified as value of 1 based on the crystal structure of the enzyme-drug complex we present here.

[3] = molecular target: LlKRS (L. loa lysyl-tRNA synthetase), wild type (Loa loa, UniProt A0A1I7VQ84); test: biochemical; conditions: IC50, enzyme inhibition of wild type LlKRS, 500 nM enzyme, 100 μM ATP, 500 μM L-lysine, 18 μM SmtRNALys, 37°C

C[C@H]1CCC[C@H](C[C@H]2Cc3cc(O)cc(O)c3C(=O)O2)O1 [cladosporin]
Thermal shift of LlKRS (LlKRS [1]): 15.5 °C | Thermal shift of SmKRS (SmKRS): 10.8 °C | Kd (LlKRS [2]): 45.2 ± 8.4 nM | IC50 [3]: 52 nM and ~52 nM

Several values for one entry are separate records, joined by “and”; a condition that tells them apart may be missing. Identical values can stand only once.
